Measured values published in patent US20260306460A1, “COMPOSITION FOR REMOVING AND INHIBITING SENESCENT CELLS, AND USES THEREOF” (LIFECEUTIX CO., LTD., priority 2023, published 2026).

Columns and labels:
[1] = tested on: obesity-induced aged C57BL6J mice; assay: Fatty liver (Oil Red O, AST, ALT) in obesity-aged mice, Example 23-5, Table 45; format: in vivo, mouse; conditions: serum, daily for 21 days, untreated 100%
Protocol: 15-week-old male C57BL6J mice (The Jackson Laboratory) were induced to obesity by a high-fat diet using the same method as in Example 9-1 WO2023-085787 A1. After acclimation to the experimental environment for one week, the mice were randomly assigned to experimental and control groups. […] LX-3002 was mixed in distilled water with 4% DMSO, 30% PEG300, and 5% Tween80 and administered orally at a concentration of 10 mg/kg daily for 21 days. LX-5701 was mixed in PBS and administered orally at a concentration of 360 mg/kg daily for 21 days. LX-6807 was mixed in saline and administered intraperitoneally at a concentration of 1 mg/kg daily for 21 days. The control group received only the solution in the same volume. After the end of drug administration, the methods described in each example below were performed.
Mice were sacrificed, and liver sections were prepared using the same method as in Example 7-3 of WO2023-085787 A1. Fat accumulation was stained with Oil Red O. In addition, AST and ALT, indicators of liver damage, were measured using the same method as in Example 8-8 of WO2023-085787 A1. […] The Oil Red O staining area and the amount of liver damage indicators after obesity-induced aging were calculated as 100% and compared with the values after treatment with the test compound.

[2] = tested on: doxorubicin-induced aged C57BL6J mice; assay: Liver damage (AST, ALT) in doxorubicin-aged mice, Example 22-8, Table 37; format: in vivo, mouse; conditions: serum, amount after aging calculated as 100%
Protocol: Eight-week-old male C57BL6J mice (KRIBB Laboratory Animal Resource Center) were acclimated to the experimental environment for one week. […] The aging-induced mice were randomly assigned to experimental and control groups. LX-403 was mixed with a 10% ethanol solution of PEG400 and administered orally at a concentration of 25 mg/kg or intradermally at a concentration of 1 μM for 21 days. LX-1801 was mixed in distilled water with 4% DMSO, 30% PEG300, and 5% Tween80 and administered intradermally at a concentration of 0.4 μM daily for 21 days. LX-2001 was mixed in PBS and administered intradermally at a concentration of 2 μM daily for 21 days. LX-2002 was mixed in distilled water with 4% DMSO, 30% PEG300, and 5% Tween80 and administered intradermally at a concentration of 2 μM daily for 21 days. […] LX-2005 was mixed in distilled water with 4% DMSO, 30% PEG300, and 5% Tween80 and administered intradermally at a concentration of 90 μM daily for 21 days. LX-2007 was mixed in distilled water with 4% DMSO, 30% PEG300, and 5% Tween80 and administered intradermally at a concentration of 90 μM daily for 21 days. […]
The amounts were measured spectrophotometrically using a kit (Sigma) according to the manufacturer's instructions. […] The amount of each factor after aging was calculated as 100% and compared with the amount of each factor after treatment with the test compound.

Tocofersolan [LX-3001]
AST [1]: 81 (±4.7) % | ALT [2]: 85 (±3.6) % | AST [2]: 81 (±5.4) %
